Measured values reported in patent publication US9023865B2, “Compounds that are ERK inhibitors” (Merck Sharp & Dohme Corp., priority 2011, dated 2015).

By UniProt entry, the sequences of proteins in these tests, tags left out.
UniProt P28482, whole entry: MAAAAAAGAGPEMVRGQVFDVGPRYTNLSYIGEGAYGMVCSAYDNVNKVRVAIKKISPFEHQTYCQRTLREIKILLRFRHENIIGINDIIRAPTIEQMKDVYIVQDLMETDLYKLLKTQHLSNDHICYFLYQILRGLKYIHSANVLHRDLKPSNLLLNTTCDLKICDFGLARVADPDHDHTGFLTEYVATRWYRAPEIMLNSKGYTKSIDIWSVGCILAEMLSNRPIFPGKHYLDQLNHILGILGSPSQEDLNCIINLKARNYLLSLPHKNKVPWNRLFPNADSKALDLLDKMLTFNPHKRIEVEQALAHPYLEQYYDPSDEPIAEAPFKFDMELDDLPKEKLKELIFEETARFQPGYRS

biological target: Active Human ERK2 (hERK2) (Homo sapiens (Human), UniProt P28482); assay: Active Human ERK2 (hERK2) Activity Assay (IMAP-FP); type: biochemical; conditions: read-out: ERK 2 Human average IC50

SMILES	IC50
Cc1cc(-c2n[nH]c3cc(NC(=O)NC4CCOc5c(F)cc(F)cc54)ncc23)ccn1 (stereo not drawn)	8.36 nM
Cc1cc(-c2n[nH]c3cc(NC(=O)N[C@@H]4CCOc5cc(Cl)ccc54)ncc23)ccn1	6.33 nM

same assay, conditions: read-out: ERK 2 Human average IC50; phosphorylated active hERK2, 30 μM ATP; average

SMILES	IC50
CN(C)CC(NC(=O)Nc1cc2[nH]nc(-c3ccc(F)cc3)c2cn1)c1ccccc1 (stereo not drawn)	0.886 nM
COCCNC(=O)Nc1cc2[nH]nc(-c3ccc(C(C)(C)C#N)cc3)c2cn1	36.4 nM
Cc1cc(-c2n[nH]c3cc(NC(=O)NC(CC(C)(C)C)c4ccc(Cl)cc4)ncc23)ccn1 (stereo not drawn)	53.5 nM
C[C@@H](NC(=O)Nc1cc2[nH]nc(-c3cc(CO)on3)c2cn1)c1ccccc1	19.7 nM
Cc1cc(-c2n[nH]c3cc(NC(=O)NC(CC(C)C)c4ccc(Cl)cc4)ncc23)ccn1 (stereo not drawn)	12.8 nM
Cc1cc(-c2n[nH]c3cc(NC(=O)NC(CN(C)C)c4ccccc4)ncc23)ccn1 (stereo not drawn)	0.739 nM
COC[C@H](C)NC(=O)Nc1cc2[nH]nc(-c3ccc(F)cc3)c2cn1	6.21 nM
Cc1cc(-c2n[nH]c3c(F)c(NC(=O)N[C@H](C)c4ccc(F)cc4)ncc23)ccn1	0.304 nM
COC[C@@H](C)NC(=O)Nc1cc2[nH]nc(-c3ccc(F)cc3)c2cn1	2.19 nM
Cc1cc(-c2n[nH]c3cc(NC(=O)NC4CNCc5ccccc54)ncc23)ccn1 (stereo not drawn)	1.2 nM
C[C@@H](NC(=O)Nc1cc2[nH]nc(-c3cncc(C(F)(F)F)c3)c2cn1)c1ccc(F)cc1	32.5 nM
Cc1cc(-c2n[nH]c3cc(NC(=O)NCc4ccc(F)cc4Cl)ncc23)ccn1	1.2 nM
Cc1cc(-c2n[nH]c3cc(NC(=O)N[C@H]4CN(C)C5(COC5)[C@@H]4c4ccccc4)ncc23)ccn1	0.516 nM
